{
  "source": "patent US20250345253A1",
  "about": "(priority 2024, published 2025)",
  "origin": "cited, not measured here",
  "key": {"[1]": {"conditions": "20° C.; cited from earlier work"}, "[2]": {"conditions": "cited from earlier work"}},
  "data": [
    {"substance": "Sodium Dichloroisocyanurate Dihydrate", "values": [
      {"measurement": "Solubility (mg/L H2O)", "setting": "[1]", "result": "28,000 b mg/L H2O"},
      {"measurement": "pH, 1% solution unless otherwise noted", "setting": "[2]", "result": 6.0, "unit": "b"}
    ]}
  ]
}
